The values that follow come from patent publication US7687620B2, “[1,4]diazepino[6,7,1-IJ]quinoline derivatives as antipsychotic and antiobesity agents” (Wyeth LLC, priority 2002, dated 2010).

The chains behind the UniProt entries cited, without tags or fusion partners. Residues count along the entry.
UniProt P28335, 33-458: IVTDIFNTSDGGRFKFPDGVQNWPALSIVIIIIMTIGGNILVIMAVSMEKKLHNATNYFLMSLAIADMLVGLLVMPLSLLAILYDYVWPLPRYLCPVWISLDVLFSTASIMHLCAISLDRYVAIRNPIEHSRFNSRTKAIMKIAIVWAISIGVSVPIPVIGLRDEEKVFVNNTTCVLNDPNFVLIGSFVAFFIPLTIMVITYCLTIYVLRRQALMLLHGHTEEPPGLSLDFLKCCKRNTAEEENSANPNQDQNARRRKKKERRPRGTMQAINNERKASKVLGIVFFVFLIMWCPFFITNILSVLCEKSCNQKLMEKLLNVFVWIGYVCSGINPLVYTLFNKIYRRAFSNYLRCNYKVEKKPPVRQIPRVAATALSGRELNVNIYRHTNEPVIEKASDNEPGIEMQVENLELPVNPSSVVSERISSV

Assay [1] addresses T1, human 5-hydroxytryptamine2C (h5HT2C) receptor (Homo sapiens, UniProt P28335).
T1 construct: expressed in transfected cells; host or cells: CHO (Chinese Hamster Ovary) cells; membrane preparation
Put plainly: 5HT2C receptor binding ([125I]DOI displacement, CHO cell membranes). Conditions: [125I]DOI binding, CHO membranes expressing h5HT2C; 95% confidence interval in brackets; read-out: Ki (95% confidence interval), reference compounds.

For another assay, the target named is human 5-HT2C receptor (Homo sapiens, UniProt P28335). Put plainly: Calcium mobilization in response to 5-HT2C receptor agonists (FLIPR, CHO cells). Format: cell-based. The following applies: CHO cells stably expressing human 5-HT2C, read-out: EC50, reference compounds. In general terms: Calcium assays in cells follow changes in intracellular calcium, usually with a dye or a luminescent sensor.

On to `Clc1cccc(N2CCNCC2)c1` [mCPP, meta-chlorophenylpiperazine, reference compound], for which, in assay [1], the Ki – broadly, a dissociation constant, usually derived from enzyme kinetics or from competition with a known ligand – was 6.5 nM. In addition, the EC50 – broadly, the concentration needed to bring the measured effect to its halfway point – at human 5-HT2C receptor is 5.4 nM.
